The record followed here is BindingDB's records for doi:10.1021/acs.jmedchem.7b00707 (Research Triangle Institute, 2017).

Protein sequences, listed by entry. Tags and fused reporters are not part of them.
UniProt P21554, whole entry: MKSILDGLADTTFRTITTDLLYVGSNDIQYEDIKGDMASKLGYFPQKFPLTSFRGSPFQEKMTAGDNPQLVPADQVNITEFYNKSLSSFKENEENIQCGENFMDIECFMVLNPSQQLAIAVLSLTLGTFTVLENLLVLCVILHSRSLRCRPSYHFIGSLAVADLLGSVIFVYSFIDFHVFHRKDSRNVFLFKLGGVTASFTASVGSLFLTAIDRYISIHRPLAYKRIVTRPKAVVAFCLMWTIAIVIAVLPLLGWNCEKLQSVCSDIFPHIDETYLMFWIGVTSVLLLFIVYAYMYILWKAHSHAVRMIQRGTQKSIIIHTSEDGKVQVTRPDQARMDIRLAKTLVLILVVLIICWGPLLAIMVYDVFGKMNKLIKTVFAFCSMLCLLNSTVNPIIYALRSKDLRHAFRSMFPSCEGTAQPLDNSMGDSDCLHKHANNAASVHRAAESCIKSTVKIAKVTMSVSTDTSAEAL

The assay has as its target Cannabinoid receptor 1 (Homo sapiens, UniProt P21554).

Usually IC50 stands for the concentration that inhibits the measured activity by half. Higher therefore signals weaker potency.

Turning to `O=C(Nc1ccc(Cl)cc1)Nc1cccc(-c2cccc(N3CCCC3)n2)c1`, the IC50 turned out to be 50 nM.
